# From US8440788B2, “N-terminal VDAC variants and uses thereof” (Ben-Gurion University of The Negev Research and Development …, priority 2006, dated 2013)
# T1: HK-I (Rattus norvegicus, UniProt P05708)
# T1 construct: Purified rat brain HK-I; from tissue; host or cells: rat brain
# T1 sequence (P05708 1-918): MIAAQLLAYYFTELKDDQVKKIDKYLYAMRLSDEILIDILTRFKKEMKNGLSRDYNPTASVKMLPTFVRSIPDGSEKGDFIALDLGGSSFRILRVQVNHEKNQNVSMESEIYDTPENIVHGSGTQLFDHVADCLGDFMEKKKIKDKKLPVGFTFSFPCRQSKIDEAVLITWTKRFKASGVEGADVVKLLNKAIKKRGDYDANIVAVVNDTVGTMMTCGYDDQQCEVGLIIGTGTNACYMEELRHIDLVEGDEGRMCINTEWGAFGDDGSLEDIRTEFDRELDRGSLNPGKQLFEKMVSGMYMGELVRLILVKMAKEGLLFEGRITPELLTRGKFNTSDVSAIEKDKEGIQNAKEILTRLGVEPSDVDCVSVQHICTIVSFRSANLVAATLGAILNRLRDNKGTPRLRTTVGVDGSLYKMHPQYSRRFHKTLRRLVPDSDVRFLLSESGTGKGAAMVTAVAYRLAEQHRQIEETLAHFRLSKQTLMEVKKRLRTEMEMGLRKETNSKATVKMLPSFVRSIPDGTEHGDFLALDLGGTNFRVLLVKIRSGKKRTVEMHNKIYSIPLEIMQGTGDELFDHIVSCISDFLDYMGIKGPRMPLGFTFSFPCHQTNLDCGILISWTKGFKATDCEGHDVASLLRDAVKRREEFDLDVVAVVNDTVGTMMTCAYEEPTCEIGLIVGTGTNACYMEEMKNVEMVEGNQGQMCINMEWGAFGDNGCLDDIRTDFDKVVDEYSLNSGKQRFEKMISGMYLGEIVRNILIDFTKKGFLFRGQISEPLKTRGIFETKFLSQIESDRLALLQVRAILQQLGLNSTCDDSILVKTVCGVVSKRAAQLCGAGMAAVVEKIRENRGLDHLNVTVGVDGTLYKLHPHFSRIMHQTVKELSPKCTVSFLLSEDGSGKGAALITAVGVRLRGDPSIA
# Tests used:
# [1] = test system: hVDAC1-shRNA-T-REx-293 cells; assay: Restoration of cell growth in T-REx-293 cells silenced for hVDAC1; type: cell-based, human; conditions: expression under tetracycline control; Trypan-Blue counting
# Text: (§1) T-REx-293 cells correspond to a transformed primary human embryonal kidney cell line, expressing the tetracycline repressor. hVDAC1-shRNA T-REx-293 cells stably expressing the pSUPERretro plasmid encoding shRNA targeting hVDAC1 were obtained and grown as described previously (Abu-Hamad et al. (2006), supra). The expression of hVDAC 1 in these cells is suppressed by 70-96% due to a gene silencing. hVDAC1-shRNA T-REx-293 cells expressing mVDAC1 or Δ(1-26)mVDAC1 were obtained by transfecting hVDAC1-shRNA-T-REx-293 cells with plasmid mVDAC1- or Δ(1-26)mVDAC1-pcDNA4/TO. Cells were grown with 200 μg/ml zeocin, 0.5 μg/ml puromycin and 5 μg/ml blasticidine, with mVDAC1 or Δ(1-26)mVDAC1 expression under tetracycline control. Cell viability was analyzed by staining with acridine orange and ethidium bromide in PBS (Zaid et al. (2005). Cell death and differentiation, 12, 751-760). Images were recorded using Zeiss LSM510 confocal or Olympus IX51 fluorescence microscopes. Mitochondria preparation and measurements of ATP levels and Ca^+ accumulation were carried out as previously described (Abu-Hamad et al. (2006), supra).
# VDAC protein provides the major pathway for nucleotides, Ca^2+ and other metabolites moving across the outer mitochondrial membrane (OMM). […]
# [2] = Channel conductance of purified VDAC reconstituted into planar lipid bilayer; type: biochemical
# Experimental: (§2) Reconstitution of purified native or Δ(1-26)mVDAC1 into planar lipid bilayers (PLB), channel recording and analysis were carried out as previously described (Gincel et al. (2001). Biochem J 358 (Pt 1), 147-155). Briefly, PLB were prepared from soybean asolectin dissolved in n-decane (50 mg/ml) in a chamber containing 10 mM Hepes/KOH, pH 7.4 and 0.5 or 1M NaCl (cis/trans). Only PLBs with a resistance greater than 100 GΩ were used. Purified VDAC (about 1 ng) was added to the chamber defined as the cis side. After insertion of one or more channels into the PLB, excess protein was removed by perfusion of the cis chamber with 20 volumes of a same solution. Currents were recorded under voltage-clamp mode using a Bilayer Clamp amplifier (Warner Instruments, Hamden, Conn.). Currents were measured with respect to the trans side of the membrane (ground). The currents were low-pass filtered at 1 kHz, using a Bessal filter (Frequency Devices, Haverhill, Mass.) and digitized on-line using a Digidata 1200 interface board and pCLAMP 6 software (Axon Instruments). Sigma Plot 2000 scientific software was used for data analyses. Experiments were performed at 23-25° C.
# [3] = test system: T-REx-293 cells silenced for hVDAC1 expression; assay: Cell death triggered by tetracycline-induced over-expression; type: cell-based, human; conditions: over-expression induced by 2.5 μg/ml tetracycline
# Experimental: (§3) Apoptotic cell death was analyzed by Acridine Orange/Ethidium Bromide staining.
# as §1
# Native and truncated mVDAC1 expression was induced by low (1.0 μg/ml) or high (2.5 μg/ml) tetracycline (Tet) in T-REx-293 cells silenced for hVDAC1 expression.
# [4] = test system: hVDAC1-shRNA-T-REx-293 cells; assay: Apoptosis induced by various stimuli in cells expressing native or truncated mVDAC1; type: cell-based, human; conditions: curcumin (100 μM), As2O3 (60 μM) or STS (1.25 μM)
# Experimental: as §3
# T-REx-293 cells correspond to a transformed primary human embryonal kidney cell line, expressing the tetracycline repressor. hVDAC1-shRNA T-REx-293 cells stably expressing the pSUPERretro plasmid encoding shRNA targeting hVDAC1 were obtained and grown as described previously (Abu-Hamad et al. (2006), supra). The expression of hVDAC 1 in these cells is suppressed by 70-96% due to a gene silencing. hVDAC1-shRNA T-REx-293 cells expressing mVDAC1 or Δ(1-26)mVDAC1 were obtained by transfecting hVDAC1-shRNA-T-REx-293 cells with plasmid mVDAC1- or Δ(1-26)mVDAC1-pcDNA4/TO. Cells were grown with 200 μg/ml zeocin, 0.5 μg/ml puromycin and 5 μg/ml blasticidine, with mVDAC1 or Δ(1-26)mVDAC1 expression under tetracycline control. Cell viability was analyzed by staining with acridine orange and ethidium bromide in PBS (Zaid et al. (2005). Cell death and differentiation, 12, 751-760). Images were recorded using Zeiss LSM510 confocal or Olympus IX51 fluorescence microscopes. Mitochondria preparation and measurements of ATP levels and Ca^+ accumulation were carried out as previously described (Abu-Hamad et al. (2006), supra). […]
# [5] = test system: hVDAC1-shRNA T-REx-293 cells; assay: Cytochrome c release induced by staurosporine (STS); type: cell-based, human; conditions: STS (1.25 μM) for 5 h; Western blotting
# Experimental: hVDAC1-shRNA T-REx-293 cells stably expressing native or Δ(1-26)mVDAC1 were grown on 60 mm plates. Native or truncated mVDAC1 expression was triggered by tetracycline (1 μg/ml). Seventy-two hours later, cells were exposed to STS (1.25 μM) for 5 h. Cells were harvested, washed twice with PBS, incubated on ice for 1 h in extraction buffer (200 mM manitol, 70 mM sucrose, 1 mM EGTA, 1 mM EDTA, 10 μg/ml leupeptine, 1 mM PMSF, 1 mg/ml BSA, 10 mM HEPES, pH 7.5) and then lysed with a Dounce homogenizer by 25 strokes. Homogenates were centrifuged (1000×g) at 4° C. for 10 min and the supernatants were re-centrifuged at 15,000×g for 30 min at 4° C. Aliquots (10 μl) of the resultant supernatants, designated as the cytosolic fraction, were immediately boiled in SDS-PAGE sample buffer and resolved by SDS-PAGE on Tris-Tricine gels (13% polyacrylamide) and immunoblotted using monoclonal anti-cytochrome c antibodies. To rule out mitochondrial contamination of the cytosolic fraction, the presence of VDAC was tested by immunoblotting. Although supernatants from the different treated cultures were derived from equal number of cells, protein concentration in the total cells lysates were estimated as well as, actin levels were analyzed by immunoblotting using anti-actin antibodies.
# HK-I = target: T1, HK-I; assay: Effect of HK-I on channel activity of bilayer-reconstituted VDAC1; type: biochemical; conditions: HK-I (28 mU/ml), voltage step 0 to +40 mV
# Experimental: as §2
# Native and Δ(1-26)mVDAC1 were expressed in porin-less yeast, purified and reconstituted into planar lipid bilayers. […]
molecule,measurement,setting,value
"mVDAC1: native mouse VDAC1 protein (NP_035824) (protein, listed as Mus musculus) MAVPPTYADLGKSARDVFTKGYGFGLIKLDLKTKSENGLEFTSSGSANTETTKVNGSLETKYRWTEYGLTFTEKWNTDNTLGTEITVEDQLARGLKLTFDSSFSPNTGKKNAKIKTGYKREHINLGCDVDFDIAGPSIRGALVLGYEGWLAGYQMNFETSKSRVTQSNFAVGYKTDEFQLHTNVNDGTEFGGSIYQKVNKKLETAVNLAWTAGNSNTRFGIAAKYQVDPDACFSAKVNNSSLIGLGYTQTLKPGIKLTLSALLDGKNVNAGGHKLGLGLEFQA",cell growth in cells silenced for hVDAC1,[1],restored
same,maximal conductance,[2]; at 1M NaCl,4 nS
same,voltage dependence of conductance,"[2]; planar lipid bilayer, FIG. 4",typical voltage-dependence conductance
same,cell death on over-expression,[3],triggered cell death on day 4 and complete cell death by day 5
same,sensitivity of expressing cells to induced apoptosis,[4],sensitive
same,cytochrome c release into the cytosol,[5],released
same,effect of HK-I on channel activity,HK-I,"induced the channel to fluctuate between the fully open, sub-conducting state to a stable, long-lived low-conducting state"
